The text below walks through data of US5883079A, “Method for inhibiting H. pylori infection in mammalian tissue” (Neose Technologies, Inc., priority 1998, dated 1999).

The assay has as its system H. pylori binding to HuTu-80 cell monolayer. Briefly: H. pylori binding inhibition to HuTu-80 cell monolayers (microtiter, urease readout). The format is cell-based, human (HuTu-80); H. pylori. Here is the method:
Cell cultures, to test for the effectiveness of H. pylori binding inhibition were prepared from human carcinomas stomach cancer epithelial cells HuTu-80 obtained from the American Type Culture Collection Rockville, Md., according to a modified procedure from that reported in Fauchere et al Microbial Pathogenesis 1990;9 427-439. The cultures were maintained in Basal medium Eagle containing 10% fetal calf serum in T-75 flasks, at 37° C. and a 5% CO2 atmosphere. Cells were harvested by trypsin/EDTA release and plated on 96-well flat bottom microtiter plates. The microtiter plates were incubated for 2-3 days until the monolayers grew to confluence. Prior to binding inhibition tests, the monolayer was washed with Hanks Balanced Salt solution (HBSS) containing Ca^+2 and Mg^+2, 0.1% BSA, 50 mM HEPES, 0.01 phenol red or HBHPR.
H. pylori bacteria isolates were obtained from B. Marshall (from the University of Virginia) and grown on sheep blood agar, collected at 48 h, washed and suspended in a binding buffer of HBSS+0.1% bovine serum albumin+50 mM HEPES buffer+0.01% phenol red or HBHPR.
In order to test for H. pylori binding inhibition, the concentration of H. pylori which bound to the monolayer was assigned an intermediate OD595 (optical density at 595 nm) (about 0.4 OD units). The same concentration of bacteria and test compound were combined for 10 minutes, then transferred onto the monolayer. Binding was allowed to occur for 20 min at room temperature under mild agitation. The unbound bacteria was washed away with 1 wash of HBHPR, then 2 washes of the same buffer without HEPES buffer (HBPR).
The amount of bacterial adhesion to the monolayer was measured by incubating with 50 μl urea-phenol red (UPR) solution (0.2% urea, 0.03% phenol red in 0.85% NaCl). The presence of bound bacteria is indicated by the presence of bacterial urease which generates NH3, which raises the pH and changes the color to purple, near at OD595.
IC50 in mg/ml was determined for each compound tested. The test data is reported below in Table 1:
IC50 S were determined using the HuTu-80 cell line monolayers. […]

A word on the pIC50: it is the IC50 on a negative log10 scale, so that one unit is a factor of ten. Low values mean a high IC50, high ones a low IC50.

pIC50: −log10 of the molar value.

As to “3' sialyl lactose-HSA: complex of 3' sialyl lactose with HSA, with about 20 molecules of 3' sialyl lactose bound to the HSA”, the negative-log IC50 (pIC50) (HuTu-80 monolayers, H. pylori binding inhibition, Table 1) was 4.70. Besides, under “HuTu-80 monolayers, relative to 3' sialyl lactose”, the “Molar activity (relative to 3' sialyl lactose)” value is given as 3.45 × 10^-3. Moreover, the “times more effective on a molar basis than 3' sialyl lactose” value (multivalent form vs monovalent) worked out at 290 times.
